Only a part is listed here, and it is no random draw. Active and inactive are the calls of the source. Calls come from the whole dose curve; as a rule, active = well fitted inhibition curve with a large enough effect; inconclusive = small, poorly fitted or top-dose-only effect; inactive = no such curve, though single readings can be large or run the other way.

The test system of this experiment is Plasmodium falciparum AMA1 (3D7) - RON2 peptide interaction. As to the kind of experiment: qHTS for Inhibitors of AMA1-RON; Towards Development of Antimalarial Drug Lead: Primary Screen.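 Note: 0% = vehicle wells and -100% = peptide control; nearly all actives have a fitted effect of over 45% in size.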 The note with it: AlphaScreen AMA1-biotinylated RON2 peptide binding; at 58.2 µM (top of the series).
For `CCC(=O)N(c1ccccc1)C1(COC)CCN(CCn2nnn(CC)c2=O)CC1`, the activity change, negative = inhibition is inactive: -0.502%. Then `CCC(=O)N(c1ccccc1)C1(COC)CCN(CCc2cccs2)CC1`, with inactive: 33.9%.
